Test results as given in patent publication US20170252410A1.

Molecular target: insulin receptor, isoform B (UniProt P06213)
Experiment: cell-based or functional assay

EC50 (PathHunter U2OS INSRb Functional Assay, receptor activation by beta-galactosidase complementation) [µg/mL] | Substance
0.282 | VitD-(3)-PEG1.2K-insulin (ligand; lysine 29 conjugated to one VitD-(3)-PEG1.2K carrier (1.2 kDa PEG scaffold on the 3 position of non-hormonal vitamin D, from VitD-(3)-PEG1.3K-NHS))
0.0079 | human insulin (unmodified) (ligand)
